Protein sequences, listed by entry. Tags and fused reporters are not part of them.
UniProt P41143, whole entry: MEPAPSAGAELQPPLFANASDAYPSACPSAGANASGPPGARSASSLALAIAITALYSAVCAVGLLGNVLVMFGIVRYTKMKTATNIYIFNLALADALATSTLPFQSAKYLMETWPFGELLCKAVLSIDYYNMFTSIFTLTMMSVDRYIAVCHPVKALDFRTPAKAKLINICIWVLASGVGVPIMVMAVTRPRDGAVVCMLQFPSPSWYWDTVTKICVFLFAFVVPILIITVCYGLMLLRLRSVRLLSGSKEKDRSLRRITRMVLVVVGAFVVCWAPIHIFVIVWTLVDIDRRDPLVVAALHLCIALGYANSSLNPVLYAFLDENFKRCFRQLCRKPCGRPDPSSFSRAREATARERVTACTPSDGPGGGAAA

According to patent US20260174855A1 (priority 2022, published 2026):

Molecular target: hDOR (Homo sapiens, UniProt P41143)
Test: [35S]GTPγS binding, G-protein activation
Assay type: biochemical
Conditions: determined from single-concentration (1 μM) experiments

DPDPE was tested, and the “Emax (% of vehicle)” value was “*172.00 % of vehicle”.
